The values that follow are results of earlier work, collected in publication PMC6259150.

The target in the series is … peptide (synthetic construct).

For concanavalin A (from UniProt P02866), the Kd is 46 µM.
